# pIC50: −log10 of the molar value.
# Sequences of proteins named here, by UniProt entry; tags and fusion partners are left off. Residues count along the entry.
# UniProt P21450, 21-427: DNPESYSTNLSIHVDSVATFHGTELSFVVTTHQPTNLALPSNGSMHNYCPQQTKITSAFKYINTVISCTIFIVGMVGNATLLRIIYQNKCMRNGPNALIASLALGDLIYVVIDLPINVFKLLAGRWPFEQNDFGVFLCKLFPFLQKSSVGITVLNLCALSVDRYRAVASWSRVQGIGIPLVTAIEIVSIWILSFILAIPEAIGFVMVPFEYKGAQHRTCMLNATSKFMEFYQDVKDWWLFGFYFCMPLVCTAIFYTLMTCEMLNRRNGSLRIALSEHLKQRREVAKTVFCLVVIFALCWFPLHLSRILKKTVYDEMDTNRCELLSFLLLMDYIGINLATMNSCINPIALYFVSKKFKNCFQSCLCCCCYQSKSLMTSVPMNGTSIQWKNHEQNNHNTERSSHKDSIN
# Assays:
# endothelin receptor [1] = target: T1, endothelin receptor (Bos taurus, UniProt P21450); test: Endothelin receptor binding inhibition (125I-endothelin-1), bovine lung membrane fraction with RES-701-1 added (Test Example 2)
# T1 construct: from tissue; host or cells: bovine lung membrane fraction (RES-701-1 added at 1.5 µg/ml)
# Protocol: (§1) The resulting solid substance was prepared as a suspension containing 2 mg/ml of protein, and the suspension was used as a membrane fraction liquid. […]
# endothelin receptor [2] = target: T2, endothelin receptor (Bos taurus, UniProt P28088); test: Endothelin receptor binding inhibition (125I-endothelin-1), bovine cerebellum membrane fraction (Test Example 1)
# T2 construct: the suspension was used as a membrane fraction liquid; from tissue; host or cells: bovine cerebellum membrane fraction
# T2 sequence (P28088 27-441): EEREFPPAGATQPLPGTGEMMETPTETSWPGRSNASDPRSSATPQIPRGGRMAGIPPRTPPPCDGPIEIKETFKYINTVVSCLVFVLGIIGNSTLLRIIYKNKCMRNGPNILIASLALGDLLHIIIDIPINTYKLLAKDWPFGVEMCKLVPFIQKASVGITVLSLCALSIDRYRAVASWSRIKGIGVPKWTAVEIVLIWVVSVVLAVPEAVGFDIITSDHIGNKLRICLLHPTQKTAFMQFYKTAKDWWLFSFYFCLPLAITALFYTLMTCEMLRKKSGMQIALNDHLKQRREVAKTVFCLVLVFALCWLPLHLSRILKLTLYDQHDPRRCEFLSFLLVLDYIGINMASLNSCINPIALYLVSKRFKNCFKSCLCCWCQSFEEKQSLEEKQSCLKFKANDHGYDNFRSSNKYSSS
# Protocol: as §1
compound,measurement,setting,value
"C[C@@H]1NC(=O)[C@H]([C@@H](C)O)NC(=O)CNC(=O)[C@H](Cc2c[nH]cn2)NC(=O)[C@H](Cc2c[nH]c3ccccc23)NC(=O)[C@H](CC(N)=O)NC(=O)CNC(=O)C[C@@H](C(=O)N[C@@H](Cc2c[nH]c3ccccc23)C(=O)N[C@@H](Cc2ccccc2)C(=O)N[C@@H](Cc2ccccc2)C(=O)N[C@@H](CC(N)=O)C(=O)N[C@@H](Cc2ccc(O)cc2)C(=O)N[C@@H](Cc2ccc(O)cc2)C(=O)N[C@@H](Cc2c[nH]c3ccccc23)C(=O)O)NC(=O)[C@@H]2CCCN2C1=O [RES-701-1, reference compound]",pIC50,endothelin receptor [1],< 6.00
same,pIC50,endothelin receptor [2],8.00
